These results are taken from patent publication US10072008B2, “Spiro-isoquinoline-3,4′-piperidine compounds having activity against pain” (LABORATORIOS DEL DR. ESTEVE S.A., priority 2015, dated 2018).

Chains of the proteins cited; added tags and fusions are not shown.
UniProt Q99720, whole entry: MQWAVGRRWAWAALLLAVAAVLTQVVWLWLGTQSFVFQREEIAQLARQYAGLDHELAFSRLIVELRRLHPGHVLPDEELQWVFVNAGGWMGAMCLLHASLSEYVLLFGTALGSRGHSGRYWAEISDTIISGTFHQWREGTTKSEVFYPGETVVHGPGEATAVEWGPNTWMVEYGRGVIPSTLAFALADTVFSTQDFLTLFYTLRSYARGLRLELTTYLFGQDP

For the assay, the target named is human σ1 receptor (Homo sapiens (Human), UniProt Q99720). The assay can be described thus: Human σ1 receptor radioligand assay ([3H](+)-pentazocine, transfected HEK-293 membranes). Particulars: binding to the σ1 receptor expressed as Ki, [3H](+)-pentazocine 5 nM. The protocol:
Human σ1 Receptor Radioligand Assay
To investigate binding properties of test compounds to human σ1 receptor, transfected HEK-293 membranes and [^3H](+)-pentazocine (Perkin Elmer, NET-1056), as the radioligand, were used. The assay was carried out with 7 μg of membrane suspension, 5 nM of [^3H](+)-pentazocine in either absence or presence of either buffer or 10 μM Haloperidol for total and non-specific binding, respectively. Binding buffer contained Tris-HCl 50 mM at pH 8. Plates were incubated at 37° C. for 120 minutes. After the incubation period, the reaction mix was then transferred to MultiScreen HTS, FC plates (Millipore), filtered and plates were washed 3 times with ice-cold 10 mM Tris-HCL (pH 7.4). Filters were dried and counted at approximately 40% efficiency in a MicroBeta scintillation counter (Perkin-Elmer) using EcoScint liquid scintillation cocktail

As usually defined, the Ki is a measure of affinity in units of concentration, obtained from inhibition or displacement. Turning to `CC(=O)N1Cc2ccccc2CC12CCN(CCc1ccccc1)CC2` [Example 5, 1-[1′-(2-Phenylethyl)-1H-spiro[isoquinoline-3,4′-piperidine]-2(4H)-yl]ethanone], the Ki was less than 500 nM.
